Measured values published in US6066628A, “Non-iron metalloporphyrins and methods of use” (Emory University, priority 1998, dated 2000).

Tests used:
[1] = test system: bacteria; format: cell-based; conditions: absence of Hb/heme
[2] = test system: E. coli EB53 (hemPR^+); assay: Growth inhibition on Nutrient Broth Dipyridyl plates; conditions: NBD 0.1 mM plates

## C=CC1=C(C)c2cc3[n-]c(cc4[n-]c(cc5nc(cc1n2)C(C)=C5C=C)c(C)c4CCC(=O)[O-])c(CCC(=O)[O-])c3C.[H+].[H+].[Mn+2] [Mn-PPIX, Manganese protoporphyrin IX]
[1]
  inhibition of growth of heme-utilizing bacteria: inhibited growth of heme-utilizing bacteria in the absence of Hb/heme

## O=S(=O)([O-])c1ccc(-c2c3nc(c(-c4ccc(S(=O)(=O)[O-])cc4)c4ccc([n-]4)c(-c4ccc(S(=O)(=O)[O-])cc4)c4nc(c(-c5ccc(S(=O)(=O)[O-])cc5)c5ccc2[n-]5)C=C4)C=C3)cc1.[Cl-].[Mn+3] [Mn-meso, Mnmeso-tetra(4-sulfonatophenyl)-porphine chloride]
[2]
  inhibition of growth: but not Sn-PPIX and Mn-meso-tetra-4-sulfonatophenyl porphine, inhibited growth

## C=Cc1c2[n-]c(c1C)/C=c1\[n-]/c(c(C)c1C=C)=C\c1[n-]c(c(CCC(=O)O)c1C)C=c1[n-]/c(c(C)c1CCC(=O)O)=C\2.[Sn+4] [Sn-PPIX, tin-protoporphyrin IX]
[2]
  inhibition of growth: but not Sn-PPIX and Mn-meso-tetra-4-sulfonatophenyl porphine, inhibited growth
